Source: PMC3774744

Test system: CC(=O)OP(=O)(O)O
Assay: purified protein
Conditions: pH 7.5; 25.0 °C

Substance: (Vibrio cholerae O395)
- Km: 6.4 ± 0.45 mM
